Assays:
[1] = Post-contamination decontamination of guinea pigs, effect of added water; settings: 1.25 molal KDAMO in MPEG550 with over 20 w/w % water of the base medium
[2] = Screening: decontaminants vs CW agents, agent destruction by gas chromatography; settings: tetraglyme
[3] = GD, preparation method I, ratio salt:agent 1:1, salt conc 0.025 M
[4] = GD, preparation method I, ratio salt:agent 2:1, salt conc 0.05 M
[5] = GD, preparation method II (in situ), ratio salt:agent 1:1, salt conc 0.025 M
[6] = GD, preparation method II (in situ), ratio salt:agent 2:1, salt conc 0.05 M
[7] = HD, preparation method I, ratio salt:agent 1:1, salt conc 0.025 M
[8] = HD, preparation method I, ratio salt:agent 2:1, salt conc 0.05 M
[9] = HD, preparation method II (in situ), ratio salt:agent 1:1, salt conc 0.025 M
[10] = HD, preparation method II (in situ), ratio salt:agent 2:1, salt conc 0.05 M
[11] = VX, preparation method I, ratio salt:agent 1:1, salt conc 0.025 M
[12] = VX, preparation method I, ratio salt:agent 2:1, salt conc 0.05 M
[13] = VX, preparation method II (in situ), ratio salt:agent 1:1, salt conc 0.025 M
[14] = VX, preparation method II (in situ), ratio salt:agent 2:1, salt conc 0.05 M

Potassium 2,3 butanedione monoximate
effect on the survival of guinea pigs decontaminated after exposure to GD [1]: negative effect

potassium salt of diethylene glycol monomethyl ether
% Decontamination at reaction time 10 sec [2, 3]: 67%
% Decontamination at reaction time 30 sec [2, 3]: 88%
% Decontamination at reaction time 1 min [2, 3]: 91%
% Decontamination at reaction time 3 min [2, 3]: 93%
% Decontamination at reaction time 10 sec [2, 4]: 100%
% Decontamination at reaction time 30 sec [2, 4]: 100%
% Decontamination at reaction time 1 min [2, 4]: 100%
% Decontamination at reaction time 30 sec [2, 5]: 78%
% Decontamination at reaction time 1 min [2, 5]: 82%
% Decontamination at reaction time 3 min [2, 5]: 77%
% Decontamination at reaction time 5 min [2, 5]: 80%
% Decontamination at reaction time 10 sec [2, 6]: 100%
% Decontamination at reaction time 30 sec [2, 6]: 100%
% Decontamination at reaction time 10 sec [2, 7]: 75%
% Decontamination at reaction time 1 min [2, 7]: 91%
% Decontamination at reaction time 3 min [2, 7]: 96%
% Decontamination at reaction time 10 sec [2, 8]: 99%
% Decontamination at reaction time 30 sec [2, 8]: 100%
% Decontamination at reaction time 1 min [2, 8]: 100%
% Decontamination at reaction time 10 sec [2, 9]: 85%
% Decontamination at reaction time 30 sec [2, 9]: 92%
% Decontamination at reaction time 1 min [2, 9]: 82%
% Decontamination at reaction time 3 min [2, 9]: 89%
% Decontamination at reaction time 5 min [2, 9]: 94%
% Decontamination at reaction time 10 sec [2, 10]: 87%
% Decontamination at reaction time 30 sec [2, 10]: 99%
% Decontamination at reaction time 1 min [2, 10]: 100%
% Decontamination at reaction time 3 min [2, 10]: 100%
% Decontamination at reaction time 5 min [2, 10]: 100%
% Decontamination at reaction time 30 sec [2, 11]: 67%
% Decontamination at reaction time 1 min [2, 11]: 80%
% Decontamination at reaction time 5 min [2, 11]: 87%
% Decontamination at reaction time 10 sec [2, 12]: 100%
% Decontamination at reaction time 30 sec [2, 12]: 100%
% Decontamination at reaction time 10 sec [2, 13]: 98%
% Decontamination at reaction time 30 sec [2, 13]: 100%
% Decontamination at reaction time 1 min [2, 13]: 100%
% Decontamination at reaction time 10 sec [2, 14]: 100%
% Decontamination at reaction time 30 sec [2, 14]: 100%
% Decontamination at reaction time 3 min [2, 14]: 100%
